Reference: article PMC3081289

How the values were obtained:
[1] = target: Vascular Endothelial Growth Factor (VEGF), receptor binding domain, VEGF_(8–109) (Homo sapiens); test: ITC; VP-ITC; Fab titrated into antigen; 10 mM Tris-HCl pH 7.5; 30°C
[2] = target: Vascular Endothelial Growth Factor (VEGF), receptor binding domain, VEGF_(8–109) (Homo sapiens); test: ITC; VP-ITC; Fab (100–220 µM) titrated into antigen (10–22 µM); phosphate-buffered saline pH 7.4; 30°C
[3] = target: Vascular Endothelial Growth Factor (VEGF), receptor binding domain, VEGF_(8–109) (Homo sapiens); test: SPR; BIAcore 3000; VEGF_(8–109) or HER2 ECD immobilised on CM5 chips; serial dilutions of Fab in PBS with 0.05% Tween20 injected at 30 µl/min; 30°C; 1:1 Langmuir fit; KD from the ratio of kon and koff
[4] = target: Vascular Endothelial Growth Factor (VEGF), receptor binding domain, VEGF_(8–109); test: SPR; conditions: 30°C; Fab over immobilized antigen

Substance | dH (ΔH (Tris)) [1] [kcal/mol] | dH (ΔHPBS) [2] [kcal/mol] | dH corrected for protonation (ΔH^CORR) [2] [kcal/mol] | pKd [3] | kon [4]
bH1-44 Fab (affinity-improved variant of bH1) | -8 | -7.1 | -7.1 | 8.70 | 
bH1-44 Fab (affinity-improved variant of bH1) HC:R50A; HC:R58A |  |  |  |  | 35 10^4 M-1s-1

pKd: −log10 of the molar value.
